Ab-95 light chain CDR variants: yeast mating affinities

Binding partner: SARS-CoV-2 spike HR2 peptide, sequence PDVDLGDISGINAS.

Ab-95 is the parent antibody, in scFv form: VH, then three GGGGS repeats, then VL. The heavy chain is unchanged in all variants.
VH: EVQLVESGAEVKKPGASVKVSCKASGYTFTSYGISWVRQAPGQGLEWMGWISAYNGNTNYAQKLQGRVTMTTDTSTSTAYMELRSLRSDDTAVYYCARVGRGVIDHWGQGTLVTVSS
VL: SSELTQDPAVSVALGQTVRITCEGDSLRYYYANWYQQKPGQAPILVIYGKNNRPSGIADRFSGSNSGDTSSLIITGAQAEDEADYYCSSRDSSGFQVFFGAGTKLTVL

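Library AAYL52 holds single substitutions and randomly drawn double and triple substitutions in the CDRs. In AlphaSeq, yeast of one mating type display the scFv and yeast of the other type display the target. Mating (16 h, 30 °C) was followed by selection of diploids and sequencing of their barcodes. Read counts were normalised to the haploid input and turned into Kd by a linear fit to BCL2-family pairs of known affinity, for each replicate. There are three technical replicates.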

Each variant's VL is given in full.
Scale: log10 of Kd in nM, estimated from mating counts; low values are strong binders.
Averages over replicates are reported, and they cover detected replicates only.
"ND" marks a missing value. The strain was present, yet no cells mated with the target were sequenced in that replicate, which points to weak or no binding.
Background: pairings of library AAYL52 with three empty control strains gave a value in 28% of cases (median 3.91, 5th percentile 2.90). Values in that range, when seen in few replicates, are hard to tell from nonspecific mating. Also given: how often the same scFv was detected with the empty control strains, with their mean in brackets.

| # | VL | log10 Kd (nM) by replicate | log10 Kd (nM), mean | empty controls |
|---|---|---|---|---|
| 1 | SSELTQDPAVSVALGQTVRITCEGLSLRYYYANWYQQKPGQAPILVIYGKNNRPSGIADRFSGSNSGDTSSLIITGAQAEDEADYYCSSRRSSGFNVFFGAGTKLTVL | 3.18 2.28 2.80 | 2.75 | 7/9 (3.99) |
| 2 | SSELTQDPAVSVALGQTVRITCEGDSLRYHYANWYQQKPGQAPILVIYGKNNRPSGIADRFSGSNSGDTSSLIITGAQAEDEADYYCSSRDSSGFQRFFGAGTKLTVL | 2.90 4.58 2.75 | 3.41 | 2/9 (3.56) |
| 3 | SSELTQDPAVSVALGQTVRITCEGDSLRYYYANWYQQKPGQAPILVIYGKNNRPSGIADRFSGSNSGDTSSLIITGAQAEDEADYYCSSFDSSGFQVVFGAGTKLTVL | 3.74 4.79 ND | 4.27 | 2/9 (4.07) |
| 4 | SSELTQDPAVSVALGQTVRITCEGDSLRYYYANWYQQKPGQAPILVIYGKNNSFSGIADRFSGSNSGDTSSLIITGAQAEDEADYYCSSRDSSGFSVFFGAGTKLTVL | 3.28 ND 3.23 | 3.25 | 5/9 (3.84) |
| 5 | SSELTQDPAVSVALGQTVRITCEGDSLRDYYANWYQQKPGQAPILVIYGKNNRPSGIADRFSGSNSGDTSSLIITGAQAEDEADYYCSSRDSSGDQVAFGAGTKLTVL | 2.31 2.45 2.06 | 2.27 | 3/9 (3.92) |
| 6 | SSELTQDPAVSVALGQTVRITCEGDSLRYYYANWYQQKPGQAPILVIYGKNNLPAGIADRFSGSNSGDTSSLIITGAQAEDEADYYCSSRDSSGFQVFFGAGTKLTVL | 2.83 3.12 1.81 | 2.59 | 1/9 (3.18) |
| 7 | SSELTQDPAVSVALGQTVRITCEGDSLRYYYANWYQQKPGQAPILVIYGKNERPSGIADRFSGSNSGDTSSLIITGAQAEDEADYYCSSNDSSAFQVFFGAGTKLTVL | 2.67 2.09 2.15 | 2.30 | 2/9 (3.94) |
| 8 | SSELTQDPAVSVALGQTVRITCEGDSLRYYFAIWYQQKPGQAPILVIYGKNNRPSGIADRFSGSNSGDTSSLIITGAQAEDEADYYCSSRDSSGFQVDFGAGTKLTVL | ND ND ND | ND | 1/9 (3.51) |
| 9 | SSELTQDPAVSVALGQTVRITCEGDSFRYYQANWYQQKPGQAPILVIYGKNNRPSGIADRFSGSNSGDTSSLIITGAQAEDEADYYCSSRDSSGFQVFFGAGTKLTVL | 1.92 1.81 1.81 | 1.85 | 2/9 (3.44) |
| 10 | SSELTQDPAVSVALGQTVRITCEGDDLRYYYANWYQQKPGQAPILVIYGKNNRPSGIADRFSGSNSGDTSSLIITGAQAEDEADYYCSNRDSSGFQVWFGAGTKLTVL | 2.91 3.42 ND | 3.16 | 1/9 (4.55) |
| 11 | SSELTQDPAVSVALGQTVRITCEGDSLRYYYANWYQQKPGQAPILVIYGKNNRPSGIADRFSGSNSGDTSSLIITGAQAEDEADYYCSSVDSLGFQVFFGAGTKLTVL | ND 3.12 4.16 | 3.64 | 2/9 (3.48) |
| 12 | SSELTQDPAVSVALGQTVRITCEGDSLCYSYANWYQQKPGQAPILVIYGKNNRPSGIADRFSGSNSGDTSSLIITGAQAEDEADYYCSSRDSSGFDVFFGAGTKLTVL | 1.85 2.20 2.11 | 2.05 | 1/9 (4.10) |
| 13 | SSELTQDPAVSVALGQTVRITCEGDSLFYYYAKWYQQKPGQAPILVIYGKNNVPSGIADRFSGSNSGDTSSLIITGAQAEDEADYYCSSRDSSGFQVFFGAGTKLTVL | 5.63 4.60 ND | 5.12 | 4/9 (4.42) |
| 14 | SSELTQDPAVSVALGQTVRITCEGDSLRHYYAWWYQQKPGQAPILVIYGKNNRPSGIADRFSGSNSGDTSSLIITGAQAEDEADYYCSSRDSSGFQVAFGAGTKLTVL | ND ND ND | ND | 2/9 (3.98) |
| 15 | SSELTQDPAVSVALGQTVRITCEGDSLRYTYANWYQQKPGQAPILVIYGKNNRPSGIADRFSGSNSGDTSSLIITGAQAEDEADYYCSRRDSSHFQVFFGAGTKLTVL | ND ND ND | ND | 1/9 (3.38) |
| 16 | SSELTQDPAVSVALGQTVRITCKGDYLRYYYANWYQQKPGQAPILVIYGKNNRPCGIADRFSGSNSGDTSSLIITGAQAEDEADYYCSSRDSSGFQVFFGAGTKLTVL | 2.27 2.75 2.97 | 2.66 | 2/9 (3.12) |
| 17 | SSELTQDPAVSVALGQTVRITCEKDSLRYDYANWYQQKPGQAPILVIYGKNNRPVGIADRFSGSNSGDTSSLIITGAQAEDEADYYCSSRDSSGFQVFFGAGTKLTVL | 2.36 2.18 2.56 | 2.37 | 1/9 (3.49) |
| 18 | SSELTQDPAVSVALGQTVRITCEGDSLNYYYANWYQQKPGQAPILVIYGENNNPSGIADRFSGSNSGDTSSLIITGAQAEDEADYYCSSRDSSGFQVFFGAGTKLTVL | ND 2.55 2.80 | 2.67 | 1/9 (4.84) |

Extract of 2 entries:

| VL | log10 Kd (nM) by replicate | log10 Kd (nM), mean | empty controls |
|---|---|---|---|
| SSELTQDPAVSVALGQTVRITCEGDSLFYYYAKWYQQKPGQAPILVIYGKNNVPSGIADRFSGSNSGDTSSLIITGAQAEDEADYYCSSRDSSGFQVFFGAGTKLTVL | 5.63 4.60 ND | 5.12 | 4/9 (4.42) |
| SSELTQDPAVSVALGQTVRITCEGDSFRYYQANWYQQKPGQAPILVIYGKNNRPSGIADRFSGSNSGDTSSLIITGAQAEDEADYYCSSRDSSGFQVFFGAGTKLTVL | 1.92 1.81 1.81 | 1.85 | 2/9 (3.44) |

The measurements come from Engelhart et al. 2022 (doi:10.1038/s41597-022-01779-4) through the FLAb antibody collection.